Screens deposited in PubChem BioAssay by Broad Institute.
FN deposition inh = fibronectin deposition inhibition | AH1F fibroblasts, Alexa488-fibronectin deposition fluorescence, overnight | inhibition, % at 12.6 µM | 350,000 compounds, 0.086% hits;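 active means mean inhibition across replicates of 30% or more, regardless of how many single replicates reach that level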
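material = AH1F fibroblast monolayer depositing Alexa488-labelled fibronectin into matrix | amount = 10000 AH1F cells/well | buffer or medium = DMEM plus 2% serum, read in PBS | incubation = 1 h cell adhesion before compound, then overnight fibronectin incubation | detection = fluorescence at 485 nm excitation, 525 nm emission | evaluation = percent inhibition as loss of matrix-bound fibronectin fluorescence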
miR-122 sensor = miR-122 inhibition in Huh7 cells; Huh7 miR-122 Renilla luciferase sensor, 48 h; neutral wells = 0, positive control = 100; activation (reporter increase), % at 12.5 µM; 340,000 compounds, 0.3% hits; AID 602342;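 active means mean replicate activation score at least 90 and every replicate individually at or above 90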;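 further: higher luciferase means less miR-122 activity so hits act as miR-122 inhibitors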
HIV Env fusion = blocks HIV Env-driven cell-cell fusion; HeLa-JRFL Env/CEM21 cell fusion, luciferase; inhibition, % at 12.3 µM; 360,000 compounds, 1.1% hits;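 active means mean replicate inhibition score of at least 50 and every replicate individually at or above 50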
PGC1a acetyl inh = modulators of PGC1a acetylation | AID 651687 | 350,000 compounds, 0.17% hits | inhibition, % at 15.6 µM | U2OS PGC1a acetylation, AlphaScreen anti-acetyl-lysine; with virally co-expressed GCN5 acetyltransferase;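 active means every replicate shows inhibition of at least 40%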
Cneo AK release = Cryptococcus neoformans lysis via adenylate kinase release. C. neoformans lysis, adenylate kinase release luminescence, 4 h; normalised: neutral wells 0, clomiphene wells 100. 360,000 compounds, 0.2% hits. lysis activity, % at 15 µM. AID 651654;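 active means mean lysis activity across replicates of at least 80%, whatever share of replicates individually reach that level; inactive means mean lysis activity below 80%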
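Material – Cryptococcus neoformans yeast cells · Quantity – 5 × 10^6 yeast cells/mL · Buffer or medium – YPD medium · Compound – single dose · Timing – 4 h static compound exposure, 37 °C, read 1 h post-reagent · Signal – adenylate kinase release luminescence · Read-out basis – lysis from increased AK signal · Benchmarks – Clomiphene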
UUG fidelity = alters start codon recognition fidelity in yeast. S. cerevisiae UUG-firefly luciferase reporter, luminescence/redox ratio. AID 602363. activity score, % at 18.7 µM. hit rate 0.13% among 350,000;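 active = replicate mean at a twofold rise or more, about +100% in these data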;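 note: firefly luciferase made from a UUG start codon reports start codon fidelity; reporter light over untreated wells divided by growth signal over untreated wells; some hits fall short of that in this replicate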
Of the large screens only hits and unclear results are named; the others gave an inactive call; ! = a repeat was not active; [ ] = another dose, or the depositor's remark. The list is not random: actives were taken first. Their share in the collection is about 1.5%.

CCOC(=O)C(C)n1cnc2c(nnn2-c2ccc(OC)cc2)c1=O (stereo not given)	none
CCOC(=O)C(C)n1cnc2c(nnn2-c2ccc(C)cc2)c1=O (stereo not given)	PGC1a acetyl inh 66.7 (no result: FN deposition inh, miR-122 sensor)
CN(c1ccccc1)S(=O)(=O)c1cc(C(=O)c2nccn2C)ccc1Cl	none (no result: FN deposition inh, HIV Env fusion, PGC1a acetyl inh)
CC(C)(C)c1ccc(C(=O)CC(=O)c2cc(Cl)ccc2O)cc1	HIV Env fusion 83.5 (no result: FN deposition inh)
Cc1ccc(C(=O)CC(=O)c2cc(Cl)ccc2O)cc1	none
COc1ccc(S(=O)(=O)NC[C@@H]2CC[C@H]3[C@H](CN3Cc3cc(F)ccc3F)O2)cc1	HIV Env fusion 59.9[16.7 µM] (no result: FN deposition inh, miR-122 sensor, Cneo AK release, UUG fidelity)
CCN1CCN(C(=O)c2cnn3c(C(F)F)cc(-c4ccc(C)cc4)nc23)CC1	none
O=C(c1cnn2c(C(F)F)cc(-c3ccccc3)nc12)N1CCN(Cc2ccc3c(c2)OCO3)CC1	HIV Env fusion 57.8 (no result: miR-122 sensor, PGC1a acetyl inh)
Cc1ccccc1Cc1c(C)nc2c(C(=O)N3CCN(Cc4ccc5c(c4)OCO5)CC3)cnn2c1C	HIV Env fusion 60.5 (no result: FN deposition inh)
COc1cc(C(C#N)N2N=C(c3ccccc3)CC2c2ccccc2)ccc1O (stereo not given)	none
COc1ccc(CC(=O)N2CCN(c3ccccn3)CC2)cc1OC	none (no result: FN deposition inh, HIV Env fusion)
Cc1cc(NC(=O)CS(=O)(=O)c2cn(Cc3cccc(C(F)(F)F)c3)c3ccccc23)no1	HIV Env fusion 77.5
Cc1cc(NC(=O)CS(=O)(=O)c2cn(Cc3cccc(F)c3)c3ccccc23)no1	HIV Env fusion 73.2
Cc1cc(NC(=O)CS(=O)(=O)c2cn(Cc3ccc(F)cc3)c3ccccc23)no1	HIV Env fusion 79.3
CCn1cc(S(=O)(=O)CC(=O)Nc2cc(C)on2)c2ccccc21	none
Cc1cc(NC(=O)CSCC(=O)NCc2cccc(C(F)(F)F)c2)no1	none (no result: miR-122 sensor, PGC1a acetyl inh, Cneo AK release, UUG fidelity)
O=C(CSc1ccc([N+](=O)[O-])cc1)c1ccccc1	none (no result: miR-122 sensor, PGC1a acetyl inh, Cneo AK release, UUG fidelity)
CC1SC(C)C(=O)N(CC(=O)NCc2ccc(F)cc2)C1=O (stereo not given)	none (no result: PGC1a acetyl inh)
Cc1ccc(/C=N/NC(=O)C2(C)CC2(Br)Br)cc1 (stereo not given)	none (no result: miR-122 sensor, PGC1a acetyl inh)
CC1(C(=O)N/N=C/c2ccc3c(c2)OCO3)CC1(Br)Br (stereo not given)	HIV Env fusion 103.5 (no result: PGC1a acetyl inh)
CCCCCc1c(O)nc(SCCN(C)C)[nH]c1=O	none (no result: miR-122 sensor)
C=CCn1c(SC(F)F)nc2scc(-c3ccco3)c2c1=O	FN deposition inh 37.2
NC(=O)N/N=C(/CCCCCC/C(=N\NC(N)=O)c1ccccc1)c1ccccc1	none
COc1ccccc1CNC(=O)C[C@@H]1C[C@@H]2c3cc(NS(=O)(=O)c4ccc(F)cc4)ccc3O[C@@H]2[C@@H](CO)O1	none (no result: FN deposition inh, UUG fidelity)
COc1ccccc1CNC(=O)C[C@H]1C[C@@H]2c3cc(NS(=O)(=O)c4ccc(F)cc4)ccc3O[C@@H]2[C@H](CO)O1	HIV Env fusion 94.4[16.7 µM] (no result: FN deposition inh, UUG fidelity)
COc1ccccc1CNC(=O)C[C@H]1C[C@@H]2c3cc(NS(=O)(=O)c4ccc(F)cc4)ccc3O[C@@H]2[C@@H](CO)O1	HIV Env fusion 55.0[16.7 µM] (no result: FN deposition inh, UUG fidelity)
CCOc1ccc(NC(=O)CN2C(=O)NC(C)(c3ccc(OC(F)F)cc3)C2=O)cc1 (stereo not given)	none (no result: PGC1a acetyl inh)
N#CC(=C1CCCC1)c1nc(-c2ccccc2O)cs1	none (no result: FN deposition inh, HIV Env fusion)
CCn1c(COc2ccccc2C)nnc1SCC(=O)NC1CCCC1	none (no result: FN deposition inh)
O=C(CSc1nc2ccccc2c(=O)n1-c1ccccc1)N1CCc2ccccc2C1	none (no result: FN deposition inh, HIV Env fusion, PGC1a acetyl inh)
CC(C)c1ccccc1-n1c(SCC(=O)N2CCc3ccccc3C2)nc2ccccc2c1=O	HIV Env fusion 59.9 (no result: miR-122 sensor, PGC1a acetyl inh)
O=C(CSc1nc2ccccc2c(=O)n1-c1ccccc1F)Nc1ccc2c(c1)CCC2	FN deposition inh 31.4
O=C(CSc1nc2ccccc2c(=O)n1CCCN1CCOCC1)Nc1ccc(F)c(Cl)c1	HIV Env fusion 70.8
CCC(=O)N1[C@H](CO)[C@@H](c2ccc(-c3ccccc3OC)cc2)C12CN(C(C)=O)C2	none (no result: FN deposition inh, miR-122 sensor, HIV Env fusion, Cneo AK release, UUG fidelity)
Cc1ccc(CN(C)C(=O)c2ccccc2Sc2ccccc2C#N)cc1	none
CN(Cc1ccc(OC(F)F)cc1)C(=O)c1ccccc1Sc1ccccc1C#N	HIV Env fusion 56.0 (no result: FN deposition inh, miR-122 sensor, PGC1a acetyl inh)
C[C@H]1CN([C@@H](C)CO)S(=O)(=O)c2ccc(Br)cc2O[C@H]1CN(C)Cc1ccccc1	HIV Env fusion 60.6![16.7 µM]
